Data on one compound can be found in patent US4120955A, “Method for production of kanamycin C and its derivatives” (Zaidan Hojin Biseibutsu Kagaku Kenkyu Kai, priority 1976, dated 1978).

One data set is described as follows: in vivo. Particulars: mouse, iv.
Data set [1] has as its system resistant bacteria which produce 3'-phosphotransferases. Particulars: known deoxykanamycin B derivatives; cited from earlier work.

In turn, `NCC1CCC(N)C(OC2C(N)CC(N)C(OC3OC(CO)C(O)C(N)C3O)C2O)O1` (centres unmarked) [DKB, 3',4'-dideoxykanamycin B, reference compound] had an LD50 in “in vivo” of 109 mg/kg. Besides, the “activity against resistant bacteria producing aminoglycoside 3'-phosphotransferases” value in data set [1] is “active”.
